The values that follow come from PubChem BioAssay (Tox21).

“And” between values parts separate entries of the source, which are not always exact repeats. Equal values may be shown once. The entries are a selection whose mix differs from that of the whole data set. Inconclusive results are not listed. The source holds several records for some structures; these can differ, active in one and inactive in another. A call without a number means that no potency is given here. The source made the active and inactive calls. Calls follow the shape of the dose curve; as a rule, active = well fitted cell-killing curve with a large enough effect in the repeat runs; inconclusive = weak or mixed curves; inactive = no such curve, though single readings can be large or run the other way.
Potency is read from the fitted curve at half-maximal effect.

The assay is described as follows: qHTS assay for identifying genotoxic compounds that show differential cytotoxicity against isogenic chicken DT40 cell lines with known DNA damage response pathways - Rad54/Ku70 mutant cell line (AID 743015). Also: nearly all actives have a fitted effect of over 60% in size. Conditions: DT40 Rad54/Ku70 mutant viability, CellTiter-Glo, 40 h; series mostly up to 66.8 µM. The text has this: National Center for Advancing Translational Sciences [NCATS]
NIH Chemical Genomics Center [NCGC]
U.S. Environmental Protection Agency [EPA]
National Institutes of Environmental Health Sciences [NIEHS]
National Toxicology Program [NTP]
U.S. Food and Drug Administration [FDA]
DNA repair pathways play a critical role in cellular homeostasis by repairing DNA damage induced by endogenous processes and xenobiotics. Isogenic chicken DT40 cell lines deficient in different DNA repair pathways can be used to identify genotoxic compounds and aid in characterizing the nature of the DNA damage induced. Two DNA repair-deficient cell lines with disrupted genes, Rad54/Ku70 or Rev3, were used to screen the Tox21 10K compound library. Possible genotoxicity was based on the presence of a significant increase in cytotoxicity in one or more of the DNA repair-deficient cell lines compared to that observed in the parental DNA repair-proficient cell line. CellTiter Glo viability assay (Promega, Madison, WI) was used to measure cell viability in these cells after compound treatment. This assay includes the data from the Rad54/Ku70 mutant cell line.
Tox21 Assay Protocol Summary:
300 DT40 mutant cells in 5 uL/well were dispensed into white, solid-bottom 1536-well plates using a Multidrop Combi (ThermoFisher Scientific, Waltham, MA) dispenser. After the assay plates were incubated at 37 C/5% CO2 for approximately 0.5 hour, 23 nL of compounds dissolved in DMSO, positive controls or DMSO only was transferred into the assay plate by a pintool work station (Kalypsys, San Diego, CA). The assay plates were incubated at 37 C/5% CO2 for 40 hours. After 5 uL per well of CellTiter-Glo reagent was added into each well of the assay plates, the plates were incubated for 30 min at room temperature and the luminescence intensity of the plates was measured using a ViewLux (PerkinElmer, Shelton, CT) plate reader.
(In general: Quantitative high-throughput screening tests each substance at several concentrations.)
In the case of `CCN(CC)CCCl`, the Potency is active: 55.3 µM. The same measure for `CC(C)OP(C)(=O)OC(C)C`: “inactive”; for `CC(C)N(CCO)C(C)C`: “inactive”. The value for `OCCSCCO` was “inactive”.

With `O=[N+]([O-])[O-].[NH4+]`, the Potency entry was “inactive”.

Turning to `C/C1=C2N=C(/C=C3N=C(/C(C)=C4\[N-][C@@](C)([C@@H]5N=C1[C@](C)(CCC(=O)NC[C@@H](C)OP(=O)([O-])O[C@H]1[C@@H](O)[C@@H](n6cnc7cc(C)c(C)cc76)O[C@@H]1CO)[C@H]5CC(N)=O)[C@@](C)(CC(N)=O)[C@@H]4CCC(N)=O)[C@@](C)(CC(N)=O)[C@@H]\3CCC(N)=O)C(C)(C)[C@@H]/2CCC(N)=O.[C-]#N.[Co+3]`, the Potency result was “inactive”. The same measure for `Nc1cc([N+](=O)[O-])cc([N+](=O)[O-])c1O`: “inactive”; for `O=[N+]([O-])c1cccc([N+](=O)[O-])c1`: “inactive and active: 71.5 µM”; for `CN(C)CCS`: “inactive”. Regarding `CP(=O)(O)OCCC[Si](O)(O)O`, the Potency entry was “inactive”. In the case of `[NH4+].[O-][Cl+3]([O-])([O-])[O-]`, the Potency entry is “inactive”.

Turning to `COc1ccc([N+](=O)[O-])cc1[N+](=O)[O-]`, the Potency entry is “inactive”.

On to `CCOP(=O)(CC)OCC`, for which the Potency result was “inactive”.

As for `CC(C)OP(=O)(F)OC(C)C`, the Potency entry is “inactive”. Consider `Cc1c([N+](=O)[O-])cccc1[N+](=O)[O-]`, for which the Potency result was “inactive”. The value for `COP(C)(=O)OC` was “inactive”; that for `Cc1cccc([N+](=O)[O-])c1[N+](=O)[O-]` was active: 49.3 µM; that for `Cc1ccc([N+](=O)[O-])cc1[N+](=O)[O-]` was “inactive”. For `CCOP(=O)(CC)Oc1ccc([N+](=O)[O-])cc1` (stereo unspecified), the Potency entry was “inactive”. Turning to `N=C(N)N[N+](=O)[O-]`, the Potency result is “inactive”.

Take `CC(C)N(CCCl)C(C)C`: the Potency entry was “inactive”.
